pKd: −log10 of the molar value.

Sequences of proteins named here, by UniProt entry; tags and fusion partners are left off. Residues count along the entry.
UniProt Q8IXJ6, 34-356, stated change not applied: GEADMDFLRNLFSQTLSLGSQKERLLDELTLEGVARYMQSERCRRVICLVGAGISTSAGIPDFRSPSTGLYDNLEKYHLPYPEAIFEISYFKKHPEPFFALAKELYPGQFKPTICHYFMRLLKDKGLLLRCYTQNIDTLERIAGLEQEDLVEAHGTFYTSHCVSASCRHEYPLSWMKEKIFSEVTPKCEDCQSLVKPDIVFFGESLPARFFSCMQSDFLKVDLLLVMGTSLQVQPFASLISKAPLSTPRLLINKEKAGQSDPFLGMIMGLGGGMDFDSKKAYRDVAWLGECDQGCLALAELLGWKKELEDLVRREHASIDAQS
UniProt Q9NTG7, 2-399: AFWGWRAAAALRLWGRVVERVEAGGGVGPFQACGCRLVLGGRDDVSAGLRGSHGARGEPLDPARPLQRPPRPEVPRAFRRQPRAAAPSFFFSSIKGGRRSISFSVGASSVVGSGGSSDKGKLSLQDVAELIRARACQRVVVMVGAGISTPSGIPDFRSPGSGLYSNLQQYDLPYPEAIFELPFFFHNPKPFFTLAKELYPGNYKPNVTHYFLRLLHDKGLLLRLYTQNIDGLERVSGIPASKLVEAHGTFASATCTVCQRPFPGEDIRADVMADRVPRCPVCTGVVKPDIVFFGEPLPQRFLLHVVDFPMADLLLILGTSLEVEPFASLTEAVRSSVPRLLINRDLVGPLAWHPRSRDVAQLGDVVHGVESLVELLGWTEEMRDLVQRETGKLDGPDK

Broadly, the pKd is the negative decadic logarithm of the Kd, by convention in mol/L.

Assay [1] addresses SIRT1, NAD+-dependent deacetylase domain (human). Kind of assay: ITC; 25 °C, MicroCal PEAQ-ITC; 200 μL of 50 μM protein in the cell titrated with 17 injections of 750 μM peptide; in the absence of NAD+; one set of binding sites model. In general terms: Isothermal titration calorimetry measures the heat released or taken up as one component is titrated into another.
Assay [2] deals with SIRT5, NAD+-dependent deacetylase domain (human). Described as above.
Assay [3] deals with Histone H3K4cr peptide (Homo sapiens) (UniProt P68431). The following applies: cited from earlier work.
Assay [4] concerns the target CobBΔ (E. coli CobB residues 38-279) (E. coli) (UniProt P75960). Kind of assay: ITC; 25 °C, MicroCal PEAQ-ITC; 50 μM protein in the cell titrated with 17 injections of 750 μM peptide; in the absence of NAD+; 'one set of binding sites' model.
Assay [5] deals with SIRT2Δ (human SIRT2 residues 34-356) (human) (UniProt Q8IXJ6). Described as above.

As for “Histone H3(1–15)K9bhb peptide (R/S racemic mixture) (from UniProt P68431 2-16)”, the values for the pKd in assay [1] and in assay [2] were 3.14 and 2.95, respectively. On to SIRT3 (from UniProt Q9NTG7), for which the pKd in assay [3] was 4.60. On to “histone H3(1-15)K9bhb peptide (racemic mixture) (from UniProt P68431 2-16)”, for which the pKd in assay [4] was 5.72. On to “histone H3(1-15)K9cr peptide (from UniProt P68431 2-16)”, for which the pKd in assay [5] is 4.09.

(Values after PMC6796883, “Molecular basis for hierarchical histone de-β-hydroxybutyrylation by SIRT3” (Cell Discovery, 2019).)
